Data as given in ChEMBL document CHEMBL2203017, “STAT6 phosphorylation inhibitors block eotaxin-3 secretion in bronchial epithelial cells” (Bioorg Med Chem, 2012).
Calls of active or inactive are those of the source. The rule behind the calls is not given here.

Tests used:
[1] = molecular target: Signal transducer and activator of transcription 6 (Homo sapiens) (UniProt P42226); assay: Inhibition of human STAT6 expressed in BEAS2B cells assessed as inhibition of IL4-induced STAT6 transcriptional activation
[2] = molecular target: Signal transducer and activator of transcription 6 (Homo sapiens) (UniProt P42226); assay: Inhibition of human STAT6 expressed in BEAS2B cells assessed as IL4-induced eotaxin-3 secretion at 10 uM after 24 hrs by ELISA

inhibition [1] | inhibition [2] | SMILES
Active | inactive | CC(C)[C@@H](C)NC(=O)c1cc(-c2cc3ccccc3s2)cc(C(=O)NCCc2ccccn2)n1
– | inactive | CN(CCc1ccccc1)C(=O)c1csc2c1CCC/C2=N/O
